Screening data from PubChem BioAssay.
ARNT-TACC3 inh: disrupts binding between human ARNT and TACC3; Q9Y6A5; AlphaScreen His-ARNT PAS-B/GST-TACC3 binding, luminescence; TACC3 fragment carries E629A point mutation; inhibition, % at 9.99 µM; 390,000 compounds, 0.66% hits; AID 623870;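 active = mean inhibition of replicates at least 50% and at least half of replicates each reaching 50%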;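 note: 0% = complete ARNT plus TACC3 wells and 100% = ARNT alone without TACC3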
PglD inh: blocks C. jejuni PglD acetyltransferase activity | purified PglD enzyme, DTNB colorimetric CoA detection | inhibition, % at 12.5 µM | 360,000 compounds, 0.098% hits | AID 602405; in the data active = inhibition above about 16%, passing the limit was not always enough
Yeast UUG start: modulators of yeast start codon fidelity, primary screen, whole organism, S. cerevisiae, single point, plate reader; S. cerevisiae UUG-firefly luciferase reporter, luminescence/redox ratio; activity score, % at 18.7 µM; 0.13% of 350,000 active; AID 602363, 2012;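 active = replicate mean at a twofold rise or more, about +100% in these data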;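 also: firefly luciferase made from a UUG start codon reports start codon fidelity; reporter light over untreated wells divided by growth signal over untreated wells; some hits fall short of that in this replicate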
CAL PDZ FP-1: blocks peptide binding to the human CAL PDZ domain; purified CAL PDZ, TMR-peptide fluorescence polarization, 1 h; inhibition, % at 24.9 µM; 300,000 compounds, 0.92% hits; Q9HD26;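 active = mean inhibition of at least 30% with at least half of replicates also reaching 30%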;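 note: 0% = DMSO neutral control and 100% = excess unlabeled competitor peptide PRC23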
CAL PDZ FP-2: inhibitors of human CAL PDZ peptide binding | Q9HD26 | purified CAL PDZ, TMR-peptide fluorescence polarization, 1 h | inhibition, % at 20 µM | 330,000 compounds, 0.02% hits | AID 504414;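 active = highest replicate inhibition of at least 40%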;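 note: plate controls were DMSO neutral control wells for no effect and unlabeled competitor peptide control wells for full effect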
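Material: tagged CAL PDZ protein CerCALP, purified; buffer or medium: sodium phosphate/NaCl buffer pH 7.4 with TCEP, IgG, Thesit; also added: fluorescent TMR peptide probe; schedule: 1 h incubation at room temperature before polarization reading; technique: fluorescence polarization from S- and P-plane intensities, G-factor corrected; control set: unlabelled peptide and DMSO controls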
Vif imaging: HIV Vif inhibition; HEK293T cells, Vif self-association by quenched fluorescence, imaging, 24 h; inhibition, % at 7.49 µM; 340,000 compounds, 0.35% hits; AID 602346; in the data active = inhibition above about 50%, passing the limit was not always enough
An asterisk follows results filed as active; x = not tested or not shown. An excerpt weighted towards active compounds, which were near 1.6% of everything screened.

SMILES	ARNT-TACC3 inh	PglD inh	Yeast UUG start	CAL PDZ FP-1	CAL PDZ FP-2	Vif imaging
CCc1ccc(NC(=O)c2ccc(NC(=O)C3CCCO3)cc2)cc1 (stereo not drawn)	-3.3	7.1	0.5	-7.3	-3.2	5.5
COC(=O)c1ccc(NC(=O)C2CC3CCC2C3)cc1 (stereo not drawn)	-3.1	-2.6	-4.6	32.1*	-3.1	-4.0
CSCCC(NC(N)=O)C(=O)NCc1ccccc1Cl (stereo not drawn)	-1.9	-2.4	-6.1	38.2*	x	39.1
O=C1CS(=O)(=O)C(c2ccccc2)N1c1ccc(-c2ccccc2)cc1 (stereo not drawn)	-5.9	-17.8	-11.4	x	x	x
COc1ccc(CNC(=O)C[C@H]2C[C@H](C(=O)N3CCOCC3)[C@@]3(CCC4CCCC4)c4[nH]c5cc(CCC(=O)N(C)C)ccc5c4CCN3C2=O)cc1OC	3.2	-0.9	9.9	51.0*	0.0	-6.7
O=C(C[C@@H]1C=C[C@@H](NC(=O)Nc2ccc(C(F)(F)F)cc2)[C@@H](CO)O1)NCCN1CCCC1	-12.0	-1.9	-5.5	x	x	x
Cc1cc(C)c(S(=O)(=O)Nc2ccc(OCC(=O)O)cc2)c(C)c1	x	4.7	-9.0	42.8*	-1.2	9.2
CC(C)n1c(=S)[nH]c2c1c(=O)[nH]c(=O)n2C	0.7	-5.0	-1.4	43.3*	-2.4	4.2
N/C(=N\O)c1ccc(NC(=O)c2ccc(Br)o2)cc1	1.2	6.2	-3.7	67.4*	-0.2	4.7
O=C(NNC(=O)c1ccc(Br)o1)c1ccc(NC(=O)c2ccccc2)cc1	-3.0	x	x	10.3	-0.6	1.2
O=c1[nH]c(Nc2ccc(F)cc2)cc2ccccc12	38.4	31.6*	-83.4	0.4	-2.6	2.1
O=c1[nH]c(Nc2ccccc2Cl)cc2ccccc12	37.2*	1.2	-88.5	-0.9	0.1	10.2

Single records (already shown):
N/C(=N\O)c1ccc(NC(=O)c2ccc(Br)o2)cc1 is entered as ARNT-TACC3 inh: 1.2; PglD inh: 6.2; Yeast UUG start: -3.7; CAL PDZ FP-1: 67.4*; CAL PDZ FP-2: -0.2; Vif imaging: 4.7
O=c1[nH]c(Nc2ccc(F)cc2)cc2ccccc12 is entered as ARNT-TACC3 inh: 38.4; PglD inh: 31.6*; Yeast UUG start: -83.4; CAL PDZ FP-1: 0.4; CAL PDZ FP-2: -2.6; Vif imaging: 2.1

Later entries.
SMILES	ARNT-TACC3 inh	PglD inh	Yeast UUG start	CAL PDZ FP-1	CAL PDZ FP-2	Vif imaging
Cc1ccc(S(=O)(=O)Nc2ccc3c(c2)C(=O)N([C@H](C)CO)C[C@H](C)[C@H](CN(C)C(=O)CCCN(C)C)OCCCC[C@H](C)O3)cc1	-4.4	3.5	9.0	x	x	x
O=C(Nc1nc(-c2ccccn2)cs1)c1cccc(-n2cnnn2)c1	70.5*	-0.3	-17.5	16.0	0.5	-6.7
NC(=O)Nc1ccc(C(=O)OCC(=O)N(Cc2ccccc2)C2CCS(=O)(=O)C2)cc1 (stereo not drawn)	-5.7	-5.5	9.3	36.6*	-0.4	17.3
Cc1cccc(C)c1OCC(=O)N(Cc1ccc(N(C)C)cc1)C1CCS(=O)(=O)C1 (stereo not drawn)	6.8	4.0	7.1	76.4*	0.2	-1.4
COc1ccc(S(=O)(=O)N(C(C)=O)c2ccc3oc(=O)sc3c2)cc1	-12.3	-0.5	-3.5	89.4*	-0.5	-6.2
COC(=O)c1c(C)oc2ccc(N(C(C)=O)S(=O)(=O)c3ccccc3)cc12	-1.6	1.5	-6.5	-2.1	-3.6	-1.4
C[C@@H]1CN([C@@H](C)CO)C(=O)c2cc(NS(=O)(=O)c3cccs3)ccc2O[C@H]1CN(C)Cc1ccc(Cl)c(Cl)c1	x	1.3	0.0	x	x	x
CN(Cc1ccc(OCC(O)CN2CCCCC2)cc1)Cc1ccnc2ccccc12 (stereo not drawn)	-58.3	-1.9	12.5	x	-0.5	-11.6
Cc1nn(C)cc1CN(C)Cc1ccc(OCC(O)CN2CCCCC2)cc1 (stereo not drawn)	-7.8	x	x	-2.8	-3.6	63.7*
O=C(CN1CCN(c2ccccc2)CC1)Nc1ccccc1Cl	x	0.1	-30.7	0.5	-2.5	-0.8
O=C(CCN1CCN(c2ccccc2)CC1)NNC(=S)Nc1ccccc1Cl	-8.0	x	x	41.2*	-0.7	4.2
C[C@H]1CN([C@@H](C)CO)C(=O)c2cccc(NC(=O)NC3CCCCC3)c2O[C@H]1CN(C)S(=O)(=O)c1cccs1	-4.7	-1.5	11.6	x	x	x
COc1ccc(OCc2nnc(SCC(=O)Nc3ccc(C)cc3)o2)cc1	9.3	1.2	-12.5	-3.3	0.5	4.8
COc1ccc(OCc2nnc(SCC(=O)Nc3cccc(Cl)c3)o2)cc1	2.8	-1.5	-22.9	-5.2	-3.6	51.4*
O=C(C[C@@H]1CC[C@H]2[C@@H](COC[C@@H](O)CN2C(=O)c2ccncc2)O1)NC1CCC1	-3.2	0.5	x	x	x	x
COc1ccccc1N1C(=O)c2cccc3c(N(C)CCO)ccc(c23)C1=O	-23.4	0.5	-0.9	x	-0.5	80.1*
